Drawing on BindingDB's records for patent US10087191 (Jiangsu Hengrui Medicine, 2018), this text covers IC50 for three compounds.

By UniProt entry, the sequences of proteins in these tests, tags left out.
UniProt P03372, whole entry: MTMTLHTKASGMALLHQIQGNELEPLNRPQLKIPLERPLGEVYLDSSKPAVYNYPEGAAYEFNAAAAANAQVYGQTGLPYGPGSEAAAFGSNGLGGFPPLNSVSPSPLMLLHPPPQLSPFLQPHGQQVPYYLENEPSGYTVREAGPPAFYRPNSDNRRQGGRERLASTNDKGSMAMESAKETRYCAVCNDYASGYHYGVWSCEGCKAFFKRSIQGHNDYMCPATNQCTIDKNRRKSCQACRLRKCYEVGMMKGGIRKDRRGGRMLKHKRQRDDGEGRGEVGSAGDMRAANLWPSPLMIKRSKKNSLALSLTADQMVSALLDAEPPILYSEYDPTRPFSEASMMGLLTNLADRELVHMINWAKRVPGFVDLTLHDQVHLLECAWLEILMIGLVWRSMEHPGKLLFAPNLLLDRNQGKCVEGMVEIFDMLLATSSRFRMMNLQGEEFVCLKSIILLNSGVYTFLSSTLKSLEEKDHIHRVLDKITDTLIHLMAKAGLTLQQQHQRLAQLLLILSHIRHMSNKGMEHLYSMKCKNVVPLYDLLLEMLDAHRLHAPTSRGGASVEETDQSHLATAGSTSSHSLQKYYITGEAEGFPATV

pIC50: −log10 of the molar value.

By pIC50 is commonly meant the IC50 on a negative log10 scale, so that one unit is a factor of ten. Read a high pIC50 as a low IC50.

In this experiment the target is Estrogen receptor (Homo sapiens, UniProt P03372). Kind of experiment: Biological Assay.
Regarding `Cc1ncc(-c2ccc3c(c2)CC(C)N(CC(C)(C)F)C3c2c(F)cc(/C=C/C(=O)O)cc2F)s1` (stereo not drawn) [US10087191, Example 10], the pIC50 was 8.90.
On to `CCn1cc(-c2ccc3c(c2)CC(C)N(CC(C)(C)F)C3c2c(F)cc(/C=C/C(=O)O)cc2F)cn1` (stereo not drawn) [US10087191, Example 20], for which the pIC50 was 9.07.
`CC1Cc2cc(-c3cn[nH]c3)ccc2C(c2c(F)cc(/C=C/C(=O)O)cc2F)N1CC(C)(C)F` (stereo not drawn) [US10087191, Example 24] showed a negative logarithm of the IC50 (pIC50) of 8.80.
